The results in this text go back to patent publication US20110028717A1, “AZAINDOLE DERIVATIVE HAVING PGD2 RECEPTOR ANTAGONISTIC ACTIVITY” (priority 2005, published 2011).

Chains of the proteins cited; added tags and fusions are not shown.
UniProt Q13258, whole entry: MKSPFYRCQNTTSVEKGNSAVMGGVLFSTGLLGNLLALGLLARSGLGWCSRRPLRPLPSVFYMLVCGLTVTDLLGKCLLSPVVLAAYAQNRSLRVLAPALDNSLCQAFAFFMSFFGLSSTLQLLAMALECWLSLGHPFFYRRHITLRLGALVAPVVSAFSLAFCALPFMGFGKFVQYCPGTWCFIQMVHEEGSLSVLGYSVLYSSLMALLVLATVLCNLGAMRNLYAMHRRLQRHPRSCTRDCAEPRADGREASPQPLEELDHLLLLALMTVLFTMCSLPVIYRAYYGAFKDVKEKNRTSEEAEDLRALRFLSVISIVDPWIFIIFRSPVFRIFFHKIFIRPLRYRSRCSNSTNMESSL

Experiment [1] deals with T1, DP receptor (Homo sapiens, UniProt Q13258). In words: cAMP assay with washed platelets (PGD2-stimulated cAMP, HTRF). The conditions noted are these: read-out: IC50 (50% DP-inhibitory concentration in the cAMP assay), 100 nM PGD2, cAMP by HTRF. Here is the method:
30 ml of peripheral blood was collected from a healthy volunteer using a syringe containing one ninth amount of 3.8% sodium citrate for diagnosis. After being centrifuged at 180 g for 10 minutes at room temperature, a supernatant was collected and used as Platelet Rich Plasma (PRP). The resulting PRP was washed with wash buffer and centrifuged three times (Washed Platelet: WP) and platelets were counted by a microcell counter. WP was added to a plate in amount of 1.5×10^8/assay and the plate was treated with 3-isobutyl-1-methylxanthin (IBMX; 0.5 mM) for 5 minutes. A reaction was initiated by adding 100 nM of PGD2 5 min after an addition of a test compound. The reaction was terminated with an addition of 1N hydrochloric acid after 2 minutes and the cells were destructed using 12% triton X-100. An amount of cAMP in the supernatant was assayed by Homogeneous […] (HTRF)
(In general: Changes in cAMP serve as a functional read-out for many G protein-coupled receptors.)

Another experiment deals with Brown Norway (BN) Rats. The experiment in a line: OVA asthma model of rat (hyperresponsive airway, infiltration of inflammatory cells, mucus secretion). The conditions noted are these: 10 mg/kg p.o. once a day for three days. Here is the method:
Brown Norway (BN) Rats were sensitized by i.p. administration of 0.1 mg/mL of ovalbumin (OVA) and 1 mg of aluminum hydroxide gel. A solution of 1% OVA was aerosolized by ultrasonic nebulizer (NE-U 17) and the rats were subjected to inhalation exposure of the aerosol for 30 minutes in an exposing chamber 12, 19, 26 and 33 days after the sensitization. One hour before the 4th exposure of the antigen, compounds of the present invention were administered in a dose of 10 mg/kg p.o. once a day for three days consecutively. In a control group, 0.5% of methyl cellulose was administered in place of the compound of the present invention.
Under pentobarbital anesthesia (80 mg/kg, i.p.), acetylcholine (3.9, 7.8, 15.6, 31.3, 62.5, 125, 250 and 500 μg/kg) was injected to jugular vein of the rats successively from a lower dose at intervals of 5 minutes three days after the fourth exposure to the antigen, and immediate contractile reaction of airways (an increase of insufflation pressure) was measured by a modified method of Konnzett & Rössler. Inhibition rate of increased hyperresponsive airway against the control group was calculated based on area under curve (AUC) obtained from concentration-response curve of acetylcholine.
After the measurement of increased hyperresponsive airway was completed, bronchoalveoli of the rats were washed with 5 mL of saline three times. Total cell number in the washings was counted by a hemacytometer under light microscope, and inhibition rates of infiltration of inflammatory cells against the control group were calculated. Further, muchin in the airway lavage fluid was measured by ELIZA method using jacalin, a muchin-binding lectin, and the inhibition rates of mucus-secretion against the control group were calculated.

The target in experiment [2] is T1, DP receptor. The experiment in a line: Receptor binding assay, [3H]-PGD2, platelet membrane. The conditions noted are these: read-out: Ki (receptor binding assay); [3H]-PGD2, human platelet membrane. How it is done:
A prepared WP was homogenated and a membrane fraction was collected with high-speed centrifugation. A compound of the present invention or a reference compound A (No. IC-73 in WO 2003/097598) was added to the plate and [^3H]-PGD2 was also added. A platelet membrane, a protein concentration is 2 mg/mL, was added and mixed in the plate, and placed on ice for 2 hours. The reaction solution was transferred to a low protein-adsorptive filter and washed with a wash solution eight times using a cell harvester. After the final washing, water was removed sufficiently, and micoscinti was added. DP inhibitory activity was investigated by measuring [^3H] by using Micro Beta.

As for `CC(C)Oc1ccc(S(=O)(=O)N2CCC(c3cn(CC(=O)O)c4nc(Cl)ccc34)CC2)cc1`, the IC50 on DP receptor [1] stood at 1.6 nM. In the experiment with Brown Norway (BN) Rats (mucin in airway lavage fluid vs control group), the “inhibition rate (%) mucus-secretion” value was 55%. Moreover, the “inhibition rate (%) infiltration of inflammatory cells” value in the experiment with Brown Norway (BN) Rats (total cell number in bronchoalveolar washings vs control group) came out at 48%. Moreover, the “inhibition rate (%) increased hyperresponsive airway” value in the experiment on Brown Norway (BN) Rats (vs control group, AUC of acetylcholine response) is on record as 64%. Besides, at DP receptor [2], the Ki was 0.91 nM.

For orientation: Ki means the equilibrium dissociation constant of an inhibitor or competing ligand from its target.
